Key:
E. coli MG1655 [1] = assay: Nitrogen source testing, EN panel; type: cell-based, Escherichia coli; conditions: 3.0 mM nitrogen source, 35° C., 48 hours
E. coli MG1655 [2] = assay: Phosphorus and sulfur source testing, EPS panel; type: cell-based, Escherichia coli; conditions: 1.0 mM phosphorus source, 35° C., 48 hours

Substance	suitability as nitrogen source (growth, purple color) (E. coli MG1655 [1])	suitability as phosphorus source (growth, purple color) (E. coli MG1655 [2])
parabanic acid	not suitable	
trimetaphosphate		positive

— US9274101B2 (BIOLOG, Inc., priority 2001, dated 2016)
